Results on one compound are retold here after patent publication US11583512B2, “Composition for relieving itch or irritation of skin, comprising thymol trimethoxycinnamate” (Amorepacific Corporation, priority 2020, dated 2023).

By UniProt entry, the sequences of proteins in these tests, tags left out.
UniProt Q15858, whole entry: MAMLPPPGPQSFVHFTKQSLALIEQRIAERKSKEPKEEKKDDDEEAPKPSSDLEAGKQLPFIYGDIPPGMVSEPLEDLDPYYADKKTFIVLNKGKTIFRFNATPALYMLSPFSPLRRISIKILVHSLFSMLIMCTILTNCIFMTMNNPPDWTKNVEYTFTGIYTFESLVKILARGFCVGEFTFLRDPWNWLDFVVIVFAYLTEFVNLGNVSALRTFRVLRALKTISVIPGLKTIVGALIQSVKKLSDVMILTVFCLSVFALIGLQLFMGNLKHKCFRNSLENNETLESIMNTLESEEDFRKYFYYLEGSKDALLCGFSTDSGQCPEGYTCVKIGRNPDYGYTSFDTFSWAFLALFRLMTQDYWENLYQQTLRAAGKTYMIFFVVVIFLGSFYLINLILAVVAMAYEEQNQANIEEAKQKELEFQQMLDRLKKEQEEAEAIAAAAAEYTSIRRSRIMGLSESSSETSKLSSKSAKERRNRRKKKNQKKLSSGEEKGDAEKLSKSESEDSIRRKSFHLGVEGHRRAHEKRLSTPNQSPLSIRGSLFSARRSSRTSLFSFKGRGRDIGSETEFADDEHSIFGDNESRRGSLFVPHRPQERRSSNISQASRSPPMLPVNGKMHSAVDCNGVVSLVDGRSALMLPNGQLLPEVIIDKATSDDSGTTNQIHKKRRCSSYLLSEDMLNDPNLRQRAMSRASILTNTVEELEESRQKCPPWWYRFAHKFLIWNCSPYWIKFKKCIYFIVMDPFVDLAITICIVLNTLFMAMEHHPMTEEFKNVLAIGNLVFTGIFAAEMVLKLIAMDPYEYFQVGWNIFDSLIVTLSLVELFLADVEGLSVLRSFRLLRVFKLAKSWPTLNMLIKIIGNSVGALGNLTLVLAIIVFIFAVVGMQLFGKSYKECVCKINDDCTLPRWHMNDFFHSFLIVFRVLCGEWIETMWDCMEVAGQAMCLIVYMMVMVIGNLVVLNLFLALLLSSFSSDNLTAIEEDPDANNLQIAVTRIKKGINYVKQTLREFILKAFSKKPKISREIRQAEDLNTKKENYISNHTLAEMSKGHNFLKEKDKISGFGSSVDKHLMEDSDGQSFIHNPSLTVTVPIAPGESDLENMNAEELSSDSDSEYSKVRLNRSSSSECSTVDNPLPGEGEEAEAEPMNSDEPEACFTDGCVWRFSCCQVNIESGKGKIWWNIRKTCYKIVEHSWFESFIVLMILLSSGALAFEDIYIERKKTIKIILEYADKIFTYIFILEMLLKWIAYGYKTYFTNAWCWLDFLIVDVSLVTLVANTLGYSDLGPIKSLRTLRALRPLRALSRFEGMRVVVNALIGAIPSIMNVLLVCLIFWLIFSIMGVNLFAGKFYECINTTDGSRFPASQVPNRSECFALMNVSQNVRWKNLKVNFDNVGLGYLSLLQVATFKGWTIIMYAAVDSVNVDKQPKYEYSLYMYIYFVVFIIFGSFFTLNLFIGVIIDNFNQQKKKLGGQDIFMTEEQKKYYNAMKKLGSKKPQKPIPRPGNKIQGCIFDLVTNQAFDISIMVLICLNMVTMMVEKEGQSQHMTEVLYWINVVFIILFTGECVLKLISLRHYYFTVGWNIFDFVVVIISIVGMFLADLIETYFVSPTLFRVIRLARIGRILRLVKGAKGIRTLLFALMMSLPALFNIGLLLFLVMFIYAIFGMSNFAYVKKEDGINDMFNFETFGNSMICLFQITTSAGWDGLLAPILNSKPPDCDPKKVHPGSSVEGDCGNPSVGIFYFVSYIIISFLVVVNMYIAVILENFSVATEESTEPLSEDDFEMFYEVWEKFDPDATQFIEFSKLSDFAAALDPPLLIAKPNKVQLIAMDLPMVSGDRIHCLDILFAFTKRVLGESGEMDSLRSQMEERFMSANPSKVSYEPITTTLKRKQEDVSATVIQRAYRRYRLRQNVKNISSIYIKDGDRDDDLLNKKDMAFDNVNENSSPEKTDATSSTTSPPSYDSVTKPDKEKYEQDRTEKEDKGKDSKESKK

Assay [1] deals with voltage-gated sodium channel Nav1.7 (Homo sapiens, UniProt Q15858). The assay can be described thus: Nav1.7 inhibition, membrane potential fluorescence dye assay with veratridine stimulation in Human Nav1.7-HEK293 cells. In kind it is cell-based.
Assay [2] addresses Nav1.7 human sodium ion channel (Homo sapiens, UniProt Q15858). Kind of assay: Nav1.7 human sodium ion channel cell-based automated patch clamp assay (Eurofins, CYL8011QP2). Conditions: applied 5 minutes; for Inhibition rate (%) Pulse 1: pulse 1 (inhibition of channel opening); for Inhibition rate (%) Pulse 2: pulse 2 (inhibition of the deactivated state). The procedure: Nav1.7 human sodium ion channel cell-based automated patch clamp assay (Eurofins, CYL8011QP2) was conducted. In a control step, the amplitude of current exceeding 200 pA was analyzed. The current amplitude was calculated by measuring the difference between the peak internal current and the residual current at the final step in −10 mV (current peak) steps. The current was evaluated under a vehicle control condition and then for 5 minutes after applying the compound.
The sodium channel is a) in resting or closed state at −120 mV, and b) in temporarily open deactivated state at 0 mV. The inhibition of channel opening (pulse 1) is measured from the sodium current at 0 mV within 1-2 ms. In order to completely deactivate the sodium channel and facilitate deactivated state-dependent drug biding, the channel was maintained longer in the open state (0 mV) and then returned to the deactivated resting or closed state at −120 mV for 10 ms. Then, the inhibition of the deactivated state (pulse 2) was evaluated at 0 mV for 50 ms. The compound was applied with each concentration for 5 minutes.
(In general: In patch-clamp work, channel activity is measured electrically.)

The term IC50 denotes the point on the concentration scale where inhibition reaches its midpoint.

In turn, `COc1cc(/C=C/C(=O)Oc2cc(C)ccc2C(C)C)cc(OC)c1OC` came in with an IC50 in assay [1] (Human Nav1.7-HEK293 cells, 30 μM veratridine as stimulant, membrane potential dye) of 3.1 µM. For the same compound, in assay [1] (compared to lidocaine of the same concentration), the “effect of inhibiting the voltage-gated sodium channel Nav1.7 compared to lidocaine” value is given as “superior effect”. Besides, the “Inhibition rate (%) Pulse 1” value in assay [2] (10 μM) came out at 0.07%; in assay [2] (30 μM), 4.30%; in assay [2] (60 μM) it was 0.93%; in assay [2] (100 μM), 15.26%; in assay [2] (200 μM) it was 15.17%. Also, the “Inhibition rate (%) Pulse 2” value is 6.60% in assay [2] (10 μM); 23.20% in assay [2] (30 μM); 24.67% in assay [2] (60 μM); 53.23% in assay [2] (100 μM); 65.02% in assay [2] (200 μM).
